Data set [1] can be described thus: Normal-phase TLC on silica gel 60 F254 (Rf). Format: physicochemical. The following applies: water:methanol:acetonitrile 60:20:20, ammonium acetate pH 7.4.
A short description of data set [2]: Reversed-phase TLC on RP-2 silanized plates (Rf). Format: physicochemical. The note with it: silica gel 60 RP-2 F254 silanized; water:methanol:acetonitrile 60:20:20, ammonium acetate pH 7.4.

`CN1[C@@H]2CC[C@H]1C[C@@H](OC(=O)C(CO)c1ccccc1)C2` (some centres unmarked) [atropine]: the “NP (Rf from NP TLC plate)” value in data set [1] amounted to 0.27. For the same compound, the “RP (Rf from RP-2 TLC plate)” value in data set [2] was 0.73.
In the same order, the values of `CCCCC(=O)N(Cc1ccc(-c2ccccc2-c2nnn[nH]2)cc1)[C@H](C(=O)O)C(C)C` [valsartan] are 0.89 and 0.97.
Turning to PABA, in data set [1], the “NP (Rf from NP TLC plate)” value was 0.89.

Source of the values: article PMC10384010, “Chromatographic Data in Statistical Analysis of BBB Permeability Indices” (Membranes, 2023).
